{"sequences": {"note": "Chains of the proteins cited; added tags and fusions are not shown. Residues count along the entry.", "UniProt P22888, 27-699": "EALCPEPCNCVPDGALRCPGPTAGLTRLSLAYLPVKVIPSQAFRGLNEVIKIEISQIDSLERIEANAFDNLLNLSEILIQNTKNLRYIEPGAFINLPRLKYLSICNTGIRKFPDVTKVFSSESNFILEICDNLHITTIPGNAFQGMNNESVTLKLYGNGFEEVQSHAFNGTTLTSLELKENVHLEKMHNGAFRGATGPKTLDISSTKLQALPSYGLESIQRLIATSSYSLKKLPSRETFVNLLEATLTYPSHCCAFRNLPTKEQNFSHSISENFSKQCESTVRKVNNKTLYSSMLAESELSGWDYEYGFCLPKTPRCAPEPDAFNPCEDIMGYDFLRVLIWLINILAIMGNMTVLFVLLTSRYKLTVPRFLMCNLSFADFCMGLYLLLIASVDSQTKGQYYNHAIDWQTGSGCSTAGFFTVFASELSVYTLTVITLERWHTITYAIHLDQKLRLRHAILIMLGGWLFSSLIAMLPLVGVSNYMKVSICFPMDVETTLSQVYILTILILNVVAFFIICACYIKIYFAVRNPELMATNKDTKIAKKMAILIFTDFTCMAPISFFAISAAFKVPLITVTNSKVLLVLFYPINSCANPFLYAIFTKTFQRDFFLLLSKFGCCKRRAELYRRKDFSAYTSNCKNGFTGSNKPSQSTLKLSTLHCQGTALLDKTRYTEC", "UniProt P30730, 27-700": "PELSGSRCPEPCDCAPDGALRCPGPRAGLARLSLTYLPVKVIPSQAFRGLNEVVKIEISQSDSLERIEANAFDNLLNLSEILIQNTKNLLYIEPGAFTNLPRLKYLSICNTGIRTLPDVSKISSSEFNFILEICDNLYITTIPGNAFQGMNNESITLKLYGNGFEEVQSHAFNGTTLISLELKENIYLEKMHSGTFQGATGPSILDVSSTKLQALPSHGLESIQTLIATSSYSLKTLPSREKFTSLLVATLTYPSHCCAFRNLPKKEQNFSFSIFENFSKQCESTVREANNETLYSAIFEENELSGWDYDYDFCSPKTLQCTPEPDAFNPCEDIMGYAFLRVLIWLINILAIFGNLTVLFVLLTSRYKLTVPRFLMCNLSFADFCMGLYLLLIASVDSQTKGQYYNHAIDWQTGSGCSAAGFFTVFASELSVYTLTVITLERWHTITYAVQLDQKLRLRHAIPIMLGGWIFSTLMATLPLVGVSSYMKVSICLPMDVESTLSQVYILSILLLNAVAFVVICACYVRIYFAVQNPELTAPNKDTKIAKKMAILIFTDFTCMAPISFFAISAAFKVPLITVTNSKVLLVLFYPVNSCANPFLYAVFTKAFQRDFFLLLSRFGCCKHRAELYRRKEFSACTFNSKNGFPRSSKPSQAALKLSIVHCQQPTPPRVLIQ"}, "source": "patent US8969304B2", "about": "“Compositions and methods for the prevention of cancer in high risk patients” (The Institute for Cancer Research, priority 2010, dated 2015)", "key": {"[1]": {"system": "GPR30", "assay": "real time RT-PCR, GPR30 gene expression", "format": "cell-based, human", "conditions": "treated MCF-10F cells, data not shown"}, "[2]": {"system": "mammary gland of virgin rats", "conditions": "cited from earlier work"}, "[3]": {"system": "breast tissue", "assay": "pilot study in asymptomatic nulliparous BRCA1 carriers, gene expression in breast epithelial cells", "format": "in vivo, human", "conditions": "250 μg r-hCG sc on alternate days, three months; two volunteers; preliminary"}, "[4]": {"target": "T1, LH/hCG-R in MCF10F cells (Homo sapiens, UniProt P22888)", "T1 construct": "For verifying the presence and functionality of the receptor in normal and transformed MCF10F cells; endogenous in cells; host or cells: MCF10F human breast epithelial cells", "assay": "intracellular cAMP production (enzyme immunoassay)", "format": "cell-based", "conditions": "2.5 μg r-hCG/ml or 20 μM PPFC-879-81-95"}, "[5]": {"system": "CXCR1", "assay": "real time RT-PCR, CXCR1 gene expression", "format": "cell-based, human", "conditions": "MCF-10F, all along the treatment"}, "[6]": {"system": "LHCGR", "assay": "real time RT-PCR, LHCGR gene expression", "format": "cell-based, human", "conditions": "MCF-10F, from the first day of treatment on"}, "[7]": {"target": "T2, LH/hCG-R in MA-10 cells (Mus musculus, UniProt P30730)", "T2 construct": "endogenous in cells; host or cells: MA-10 mouse Leydig tumor cells", "assay": "intracellular cAMP production (enzyme immunoassay)", "format": "cell-based", "conditions": "2.5 μg r-hCG/ml or 20 μM PPFC-879-81-95"}, "[8]": {"system": "FAK/AKT/FOXO3A pathway", "assay": "FAK, AKT and FOXO3A expression (unpublished data)", "format": "cell-based", "conditions": "previous results"}, "[9]": {"system": "E2-transformed MCF-10F cells", "assay": "solid mass formation and branching of E2-transformed MCF-10F cells in collagen", "format": "cell-based, human", "conditions": "2.5 mcg/ml r-hCG"}, "[10]": {"conditions": "virgin rats, validated by real time RT-PCR"}}, "data": [{"substance": "r-hCG: recombinant human chorionic gonadotropin (r-hCG; Ovidrel)", "values": [{"measurement": "GPR30 mRNA expression", "setting": "[1]", "result": "undetectable or very low values"}, {"measurement": "susceptibility of the mammary gland to carcinogenesis", "setting": "[2]; 21 day-treatment of virgin rats before carcinogen (DMBA) administration", "result": "reverted"}, {"measurement": "mediators of the preventive effect in the mammary gland", "setting": "[2]; rats, hCG treatment", "result": "induction of differentiation of the mammary gland, depression of DNA synthesis, and changes in the genomic profile of the gland"}, {"measurement": "expression of CTBP1, KDM1, MLL5 and KDM6B", "setting": "[2]; [10]", "result": "upregulated"}, {"measurement": "expression of RPS6KA3 and BMI1", "setting": "[2]; [10]", "result": "downregulated"}, {"measurement": "genomic signature of the breast tissue", "setting": "[3]", "result": "exhibits a shift of the same group of genes detected in parous women"}, {"measurement": "intracellular cAMP production", "setting": "[4]", "result": "time-dependent increase"}, {"measurement": "CXCR1 expression", "setting": "[5]", "result": "down-regulated"}, {"measurement": "hCG receptor (LHCGR) gene expression", "setting": "[6]", "result": "up-regulated"}, {"measurement": "intracellular cAMP production", "setting": "[7]", "result": "time-dependent increase"}, {"measurement": "FAK and AKT", "setting": "[8]", "result": "decrease"}, {"measurement": "FOXO3A expression", "setting": "[8]", "result": "up-regulate"}, {"measurement": "number of secondary and tertiary branching in the ductular structures", "setting": "[9]", "result": "increased the number of secondary and tertiary branching"}, {"measurement": "number of solid masses", "setting": "[9]; in comparison with the controls", "result": "significant decrease in the number of solid masses"}]}]}
